Data taken from patent US20020015937A1, “Methods for inactivating viruses” (priority 2000, published 2002).

Test system: bacteriophage MS2
Assay: Inactivation of bacteriophage MS2 in human blood plasma by pressure and ethyleneimine (plaque assay on E. coli)

aziridine (ethyleneimine)
reduction in viral titer, combination with pressure versus sum of the reductions of the single treatments (0.025 M ethyleneimine, 30,000 psi for 10 minutes, 25° C., human blood plasma, 10^8 pfu per ml MS2): significantly greater reduction in viral titer | viral inactivation under pressure at lower concentrations (similar experiments with lower concentrations of ethyleneimine, with pressure): equivalent viral inactivation with lower concentrations of ethyleneimine or with shorter incubation time
